Laboratory results: ChEMBL document CHEMBL4842383 (J Med Chem, 2021)

How the values were obtained:
[1] = organism: Homo sapiens; assay: Selectivity ratio for IC50 for human c-Kit to IC50 wild-type human partial length CSF1R (I564 to S939 residues)
[2] = organism: Homo sapiens; assay: Selectivity ratio for IC50 for human wild-type human partial length PDGFRalpha (V575 to D1002 residues) to IC50 wild-type human partial length CSF1R (I564 to S939 residues)
[3] = organism: Homo sapiens; assay: Selectivity ratio for IC50 for human wild-type human partial length PDGFRbeta (V582 to Y1009 residues) to IC50 wild-type human partial length CSF1R (I564 to S939 residues)
[4] = organism: Homo sapiens; assay: Selectivity ratio for IC50 for human wild-type human partial length DDR1 (R565 to V876 residues) to IC50 wild-type human partial length CSF1R (I564 to S939 residues)
[5] = organism: Homo sapiens; assay: Selectivity ratio for IC50 for human wild-type human partial length FLT3 (V592 to Y969 residues) to IC50 wild-type human partial length CSF1R (I564 to S939 residues)
[6] = organism: Homo sapiens; assay: Selectivity ratio for IC50 for human wild-type human partial length AURKB (D25 to A303 residues) to IC50 wild-type human partial length CSF1R (I564 to S939 residues)
[7] = organism: Homo sapiens; assay: Selectivity ratio for IC50 for human wild-type human full length PAK3 (M1 to R544 residues) to IC50 wild-type human partial length CSF1R (I564 to S939 residues)
[8] = organism: Homo sapiens; assay: Selectivity ratio for IC50 for human wild-type human partial length VEGFR2 (R787 to P1253 residues) to IC50 wild-type human partial length CSF1R (I564 to S939 residues)

Selectivity ratio [1]: 2.1
Selectivity ratio [2]: 48
Selectivity ratio [3]: 59
Selectivity ratio [4]: 113
Selectivity ratio [5]: 121
Selectivity ratio [6]: 426
Selectivity ratio [7]: > 15000
Selectivity ratio [8]: > 15000
Compound: CN(C)c1ccc2c(Oc3ccc(NC(=O)NCc4ccc(C(F)(F)F)nc4)cc3)ncnc2c1
